Results from US12679836B2, “4H-pyrrolo[3,2-c]pyridin-4-one compounds” (Bayer Aktiengesellschaft, priority 2019, dated 2026).

Amino acid sequences for entries named in this document (tags omitted). Chains listed by the source or under a name are the forms on record and can include a tag or linker.
UniProt P00533, with tags, fused parts or gaps DUP768-770: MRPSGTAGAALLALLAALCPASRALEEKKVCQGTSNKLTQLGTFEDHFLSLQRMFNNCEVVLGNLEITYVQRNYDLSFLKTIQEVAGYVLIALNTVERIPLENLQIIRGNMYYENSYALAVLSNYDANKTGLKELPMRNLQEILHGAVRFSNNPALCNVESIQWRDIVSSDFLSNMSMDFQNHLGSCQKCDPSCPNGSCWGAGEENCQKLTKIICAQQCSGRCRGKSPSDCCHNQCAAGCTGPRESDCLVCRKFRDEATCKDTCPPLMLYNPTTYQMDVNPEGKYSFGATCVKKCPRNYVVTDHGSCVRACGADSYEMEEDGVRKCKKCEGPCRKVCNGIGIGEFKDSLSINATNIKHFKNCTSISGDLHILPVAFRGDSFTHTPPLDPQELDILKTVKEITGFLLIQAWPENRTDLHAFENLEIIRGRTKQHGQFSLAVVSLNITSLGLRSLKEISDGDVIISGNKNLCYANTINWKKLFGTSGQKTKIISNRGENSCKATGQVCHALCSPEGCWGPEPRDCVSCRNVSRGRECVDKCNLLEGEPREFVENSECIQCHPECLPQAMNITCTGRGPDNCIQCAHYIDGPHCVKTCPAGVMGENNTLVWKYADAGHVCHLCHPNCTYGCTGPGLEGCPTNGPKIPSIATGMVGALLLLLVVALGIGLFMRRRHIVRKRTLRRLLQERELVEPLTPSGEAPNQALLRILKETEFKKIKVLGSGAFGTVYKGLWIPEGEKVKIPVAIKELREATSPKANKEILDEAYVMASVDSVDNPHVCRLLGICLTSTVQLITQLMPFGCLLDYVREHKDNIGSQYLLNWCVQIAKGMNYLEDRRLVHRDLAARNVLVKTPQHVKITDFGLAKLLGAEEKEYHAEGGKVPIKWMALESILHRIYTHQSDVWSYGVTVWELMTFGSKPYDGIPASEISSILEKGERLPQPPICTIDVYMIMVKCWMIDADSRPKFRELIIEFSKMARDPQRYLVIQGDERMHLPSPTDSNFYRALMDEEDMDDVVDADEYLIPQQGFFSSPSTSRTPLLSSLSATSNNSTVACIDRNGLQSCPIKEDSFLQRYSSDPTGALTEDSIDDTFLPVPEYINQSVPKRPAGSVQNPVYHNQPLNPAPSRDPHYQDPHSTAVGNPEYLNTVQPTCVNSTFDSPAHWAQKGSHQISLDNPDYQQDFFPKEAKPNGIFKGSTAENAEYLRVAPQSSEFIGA

Target: Ba/F3-EGFR-insSVD cells (Homo sapiens, UniProt P00533, DUP768-770, cells depend on it)
Assay: Ba/F3 cell survival assay (Cell Titer-Glo), EGFR-insSVD
Type: cell-based
Details: read-out: BA/F3 (insSVD) IC50 [mol/l]; Table 5, prior art compounds of WO 2016/120196
Method: 293T cells from ATCC were transfected with pBABEpuro expression constructs for WT EGFR or EGFR-insSVD and pCL-Eco packaging vector using Fugene-6 transfection reagent from Promega. Plates were incubated at 37° C. for 48 h. Retrovirus was harvested by filtering the media supernatant through a 0.45 μm filter.
Ba/F3 cells purchased from DSMZ were grown in RPMI+10% FBS+10 ng/mL IL-3 and infected with filtered retroviral supernatant at a 1:2 dilution. Polybrene was added to a concentration of 8 μg/mL, plates were spun for 90 min, and incubated overnight at 37° C. 2 μg/mL puromycin was added to the infected cells 24 h after infection and cells were continually grown in the presence of puromycin and 10 ng/mL IL-3. Following stably expressing Ba/F3 cell lines were generated: Ba/F3-EGFR-WT, Ba/F3-EGFR-insSVD, (Ba/F3-vector-control).
For cell survival assays, Ba/F3 cells were grown to a density of 1-2 million cells per mL, spun down and resuspended in media without IL-3, and replated at a concentration 200,000-500,000 cells per mL. The cells ectopically expressing WT EGFR or EGFR-insSVD were plated with 10 ng/mL Millipore Culture grade EGF. The cells ectopically expressing pBABEpuro empty vector were plated with 10 ng/mL IL-3. 2 days later, cells were plated in 50 μL in a 384 well plate at a concentration of 4000 cells per well for cells assayed in the absence of IL-3 and 2000 cells per well for cells assayed in the presence of IL-3. 100 nL of compound was added to each well using a 100 nL pin head, and plates were incubated at 37° C. for 48 h.
Cell viability was measured by adding 20 μL of Cell Titer-Glo Luminescent Cell Viability Reagent diluted 1:3 in PBS. Plates were sealed with Perkin Elmer Top-Seal, inverted several times to mix, and immediately centrifuged at 1000 rpm for 2 min. Plates were incubated in low light conditions for 8-10 min and luminescence was measured.

Row | Structure (SMILES) | GI50
1 | O=C1NCCc2[nH]c(-c3ccncc3OCC(F)F)c(Nc3cccc(F)c3)c21 | > 2000 nM
2 | O=C1NCCc2[nH]c(-c3ccncc3OCC3CC3)c(Nc3ccc(F)cc3)c21 | > 2000 nM
3 | COCCOc1cnccc1-c1[nH]c2c(c1Nc1ccc(F)c(F)c1)C(=O)NCC2 | > 2000 nM
